pKi: −log10 of the molar value. Values joined by “and” are separate entries in the source; they are usually repeats but may differ in a detail not shown here. Equal values may be shown once.
Target: Hrh3 protein (Rattus norvegicus, UniProt Q5PPG3)

Amino acid sequences for entries named in this document (tags omitted).
UniProt Q5PPG3, whole entry: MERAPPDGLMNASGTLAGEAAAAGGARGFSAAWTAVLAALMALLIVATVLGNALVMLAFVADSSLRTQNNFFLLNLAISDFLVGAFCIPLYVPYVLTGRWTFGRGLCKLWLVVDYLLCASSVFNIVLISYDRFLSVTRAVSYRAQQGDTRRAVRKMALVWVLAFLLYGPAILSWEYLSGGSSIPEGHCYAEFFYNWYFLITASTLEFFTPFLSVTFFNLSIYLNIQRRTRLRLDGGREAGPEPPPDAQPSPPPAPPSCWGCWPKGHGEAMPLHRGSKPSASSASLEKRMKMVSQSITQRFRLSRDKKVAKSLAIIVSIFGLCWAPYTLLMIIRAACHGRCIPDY

Q: How did the pKi turn out when `NC(=NCc1ccc(Cl)cc1)SCCCc1cnc[nH]1` [VUF 9153] was run?
A: The pKi was 9.60 and 9.82.

Source: BindingDB's records for doi:10.1016/0014-2999(96)00428-1 (Glaxo Research & Development, 1996)
